Test results published in patent US6991685B2, “Low temperature cleaning” (Ecolab Inc., priority 2003, dated 2006).
Where two headings read alike, the source gives them in different places.

System: Lactobacillus malefermentans (ATCC 11305)
Conditions: 185 F. water, 5-min contact

Measured: Filter Survivors

O [185 F. Water, water]
<1 CFU: BUNA N coupon, pH 2.3 phosphoric acid 104 F. 2 weeks | BUNA N coupon, pH 13 caustic 185 F. 2 weeks | Silicon Rubber coupon, pH 2.3 phosphoric acid 104 F. 2 weeks | Silicon Rubber coupon, pH 13 caustic 185 F. 2 weeks | Stainless Steel coupon, no pre-treatment
